Assay results as given in patent US4999354A, “Imidazoquinoxaline compounds and their preparation and use” (A/S Ferrosan, priority 1987, dated 1991).

System: benzodiazepine receptors
Test: in vivo displacement of 3H-flunitrazepam from brain benzodiazepine receptors in mice
Design: species or system mice (female, NMR)
Conditions: test substance intraperitoneally 15 min before 3H-FNM i.v., forebrains taken 20 min after 3H-FNM
Source text: The pharmaceutical properties of the compounds of the invention can be illustrated by determining their capability for displacing radioactive labelled flunitrazepam from benzodiazepine receptors.
The displacement activity of the compounds of the invention may found by determining the ED50 value. The ED50 value represents the dose (mg/kg) of a test substance which causes the specific binding of flunitrazepam to benzodiazepine receptors in a living brain to be reduced to 50% of the control value.
Such an in vivo test is carried out as follows:
Principle. Twenty minutes after a dose of ^3 H-flunitrazepam ^3 H-FNM) (200 μCi/kg, i.v.) the amount of specific ^3 H-FNM binding to brain benzodiazepine receptors has reached its maximal value.
Test procedure. […] The amounts of radioactivity on the filters are determined by conventional scintillation counting. […]
Results. The ED50 value is determined from dose response curves. If only one dose of test substance is administered the ED50 value is calculated as follows, provided that the inhibition of specific binding is within the range of 25-75%: [formula] where Co is specific binding in controls and Cx is specific binding in mice treated with test substance.

For CC(C)n1c(=O)c2c(-c3noc(C4CC4)n3)ncn2c2ccccc21 [Compound 3, 3-(5-cyclopropyl-1,2,4-oxadiazol-3-yl)-4,5-dihydro-5-isopropyl-4-oxo-imidazo[1,5-a]quinoxaline], the “ED50 (dose that inhibits 50% of specific 3H-flunitrazepam binding to brain benzodiazepine receptors)” value was 0.33 mg/kg.
